In the assay the target is human furin (Homo sapiens, UniProt P09958). Nature of the assay: Human furin inhibition, hydrolysis of Ac-RVRR-MCA. The following applies: read-out: Ki hFurin; gemini surfactants of type B, Table 3. The procedure: The enzyme was dissolved in 1 mL MES buffer (10 mM), 1 mM CaCl2, pH 7.0 at 36.5° C. Substrate was added in a concentration 10 times the Km, and the inhibitor compounds of type C (C16-KGnK-C16, C16-KAnK-C16, and C16-RAnR-C16) were added in increasing concentrations (1.0, 5.0, 10.0, 20.0, 40.0 μL) from a stock solution of 2 mg in 1 mL DMSO. The residual activity was measured in a Hitachi F2500 spectrofluorimeter, and plots were fitted using the Grafit® software (Erithracus Software, Horley, Surrey, UK). All the assays were calculated by the Morrison equation for competitive inhibition (eq. 1, [Morrison, 1969]). The amount of substrate used for the tight binding titration experiments follow all the requirements, where [S]<<Km for all enzymes, so the Kiapp=Ki.
However, for furin we used a correction of Ki app, where [S]˜Km (eq. 2).
Range of Proteases Inhibited by Geminoids, Determination of Ki with Z-RR-MCA (Dengue 2 Protease) and Ac-RVRR-MCA (Furin) (SEQ ID NO:60).

Protein sequences, listed by entry. Tags and fused reporters are not part of them. Residues count along the entry.
UniProt P09958, 108-794 limits assumed: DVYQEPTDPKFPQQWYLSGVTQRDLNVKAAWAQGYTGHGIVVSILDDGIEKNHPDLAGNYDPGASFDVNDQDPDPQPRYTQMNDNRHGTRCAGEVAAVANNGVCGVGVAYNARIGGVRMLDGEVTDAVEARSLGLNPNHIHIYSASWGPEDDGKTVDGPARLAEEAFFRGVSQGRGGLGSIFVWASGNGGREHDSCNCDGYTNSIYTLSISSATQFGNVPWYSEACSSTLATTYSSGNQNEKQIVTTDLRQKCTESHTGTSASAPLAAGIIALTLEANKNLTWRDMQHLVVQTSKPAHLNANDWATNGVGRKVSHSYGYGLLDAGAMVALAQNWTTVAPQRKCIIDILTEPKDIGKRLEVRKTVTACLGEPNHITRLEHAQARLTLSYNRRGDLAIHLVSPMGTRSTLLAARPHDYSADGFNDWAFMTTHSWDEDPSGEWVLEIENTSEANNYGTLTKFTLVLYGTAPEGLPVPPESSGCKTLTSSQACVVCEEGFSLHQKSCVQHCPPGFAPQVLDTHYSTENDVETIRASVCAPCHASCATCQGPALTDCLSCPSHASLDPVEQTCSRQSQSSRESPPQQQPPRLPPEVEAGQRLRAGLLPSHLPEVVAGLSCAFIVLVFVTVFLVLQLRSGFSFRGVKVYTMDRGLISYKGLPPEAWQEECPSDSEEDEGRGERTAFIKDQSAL

Structures are written as SMILES.

As a reminder, the Ki is a measure of affinity in units of concentration, obtained from inhibition or displacement. With `CCCCCCCCCCCC(=O)N[C@@H](CCCCN)C(=O)NCCCCCCNC(=O)[C@H](CCCCN)NC(=O)CCCCCCCCCCC`, the inhibition constant (Ki) turned out to be 1600 nM.

Values taken from patent US20220017572A1, “GEMINOID LIPOPEPTIDE COMPOUNDS AND THEIR USES” (Erasmus University Medical Center Rotterdam, priority 2016, published 2022).
